Marks after values point to notes of the source that are not given here.
Columns and labels:
mice [1] = assay: Spontaneous (locomotor) activity in mice, compound alone (agonism test); assay type: in vivo; conditions: for Max stim of spontaneous locomotor activity, Compound Alone (in words): at the dose(s) [mg/kg] given in parentheses in the cell
mice [2] = assay: Rectal temperature (hypothermia) in mice, compound alone (agonism test); assay type: in vivo; conditions: i.v.; for RT: maximal effect produced by the analog (change in rectal temperature): at 30 mg/kg
mice [3] = assay: Tail-flick antinociception in mice, compound alone (agonism test); assay type: in vivo; conditions: i.v.
CB1 receptor = CB1 receptor (Rattus norvegicus, UniProt P20272); conditions: 1 nM [3H] CP 55,940, rat whole brain P2 membranes, 30° C. for 1 hr
mice [4] = assay: Spontaneous activity in mice, compound in combination with 3 mg/kg Δ^9-THC (antagonism test); assay type: in vivo
mice [5] = assay: Tail-flick antinociception in mice, compound in combination with 3 mg/kg Δ^9-THC (antagonism test); assay type: in vivo
mice [6] = assay: Rectal temperature in mice, compound in combination with 3 mg/kg Δ^9-THC (antagonism test); assay type: in vivo
[7] = at the dose(s) [mg/kg] given in parentheses in the cell

Amino acid sequences for entries named in this document (tags omitted).
UniProt P20272, whole entry: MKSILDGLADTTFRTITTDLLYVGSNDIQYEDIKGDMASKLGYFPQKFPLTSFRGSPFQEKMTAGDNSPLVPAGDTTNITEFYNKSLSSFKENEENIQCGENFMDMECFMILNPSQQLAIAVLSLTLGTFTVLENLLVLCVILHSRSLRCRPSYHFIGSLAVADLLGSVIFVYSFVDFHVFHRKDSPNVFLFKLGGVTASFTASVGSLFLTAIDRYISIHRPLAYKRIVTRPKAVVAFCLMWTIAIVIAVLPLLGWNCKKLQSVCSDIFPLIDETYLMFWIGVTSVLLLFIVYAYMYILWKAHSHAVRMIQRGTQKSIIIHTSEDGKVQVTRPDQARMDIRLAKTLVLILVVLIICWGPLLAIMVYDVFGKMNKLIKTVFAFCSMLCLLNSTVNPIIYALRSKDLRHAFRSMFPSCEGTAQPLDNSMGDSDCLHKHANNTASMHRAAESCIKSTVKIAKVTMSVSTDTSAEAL

Row | SMILES | Max % inhibit of spontaneous locomotor activity, Compound Alone (mice [1]; at 30 mg/kg i.v.) | Max stim of spontaneous locomotor activity, Compound Alone (in words) (mice [1]) | SA: > dose, 50% activity not achieved at this highest dose tested (mice [1]; mice, i.v.) [mg/kg] | RT: > dose, 50% activity not achieved at this highest dose tested (mice [2]) [mg/kg] | TF: > dose, 50% activity not achieved at this highest dose tested (mice [3]) [mg/kg] | Ki (CB1 receptor) [µM] | other results
1 | Cc1c(COCc2ccc3ccccc3c2)nn(-c2ccc(Cl)cc2Cl)c1-c1ccc(Cl)cc1 | 3% (30) | None (30) | >30 | >30 | >30 | 0.216 | –
2 | Cc1c(COCc2ccc(Cl)cc2)nn(-c2ccc(Cl)cc2Cl)c1-c1ccc(Cl)cc1 | 46% (30) | None (30) | – | – | >30 | 0.109 | SA: maximal effect produced by the analog (mice [1]; mice, i.v., at 30 mg/kg): 66% (30)^#; RT: maximal effect produced by the analog (change in rectal temperature) (mice [2]): −3 (30)^# ° C.
3 | Cc1c(COCc2ccc(C)c3ccccc23)nn(-c2ccc(Cl)cc2Cl)c1-c1ccc(Cl)cc1 | – | – | >30 | >30 | >30 | 0.143 | Max stim of spontaneous locomotor activity, Compound Alone (mice [1]; at 30 mg/kg i.v.): 4% (30)
4 | Cc1c(COCc2ccc(F)cc2)nn(-c2ccc(Cl)cc2Cl)c1-c1ccc(Cl)cc1 | 96% (30) | – | – | – | – | 0.054 | Max % inhibit of spontaneous locomotor activity, Compound with 3 mg/kg Δ^9-THC (mice [4]; at 3 mg/kg i.v.): 72% (3); SA: maximum % antagonism of 3 mg/kg Δ^9-THC (mice [4]; at 3 mg/kg i.v., analog 10 min before Δ^9-THC): 2% (3); Max stim of spontaneous locomotor activity, Compound with 3 mg/kg Δ^9-THC (in words) (mice [4]; [7]): None (3); Max stim of spontaneous locomotor activity, Compound Alone (mice [1]; at 1 mg/kg i.v.): 31% (1); stimulation of locomotor activity (mice [1]; compound alone, dose not given (see Table 5)): about 30%; SA (suppression of spontaneous activity) ED50 (mice [1]; mice, i.v., 95% confidence limits in parentheses, * = estimated ED50, dose-effect curve not linear): 20 (17-25) μmol/kg; % MPE: maximum % antagonism of 3 mg/kg Δ^9-THC (mice [5]; at 3 mg/kg i.v.): 40% (3); RT (rectal temperature) ED50 (mice [2]; 30 min post-injection, 95% confidence limits in parentheses): 40 (31-52) μmol/kg; TF: maximal effect produced by the analog (mice [3]; at 30 mg/kg): 67% (30)^#; RT: maximum % antagonism of 3 mg/kg Δ^9-THC (mice [6]; at 3 mg/kg i.v.): 11% (3)
5 | Cc1c(COCc2ccccc2)nn(-c2ccc(Cl)cc2Cl)c1-c1ccc(Cl)cc1 | 48% (30) | – | >30 | – | >30 | 0.108 | Max stim of spontaneous locomotor activity, Compound Alone (mice [1]; at 10 mg/kg i.v.): 25% (10); RT: maximal effect produced by the analog (change in rectal temperature) (mice [2]): −4 (30)^# ° C.
6 | Cc1c(COCc2ccc(F)cc2F)nn(-c2ccc(Cl)cc2Cl)c1-c1ccc(Cl)cc1 | 49% (30) | – | >30 | >30 | >30 | 0.053 | Max % inhibit of spontaneous locomotor activity, Compound with 3 mg/kg Δ^9-THC (mice [4]; at 3 mg/kg i.v.): 88% (3); Max stim of spontaneous locomotor activity, Compound with 3 mg/kg Δ^9-THC (in words) (mice [4]; [7]): None (3 & 10); SA: maximum % antagonism of 3 mg/kg Δ^9-THC (in words) (mice [4]; [7]): None (3, 10); Max stim of spontaneous locomotor activity, Compound Alone (mice [1]; at 3 mg/kg i.v.): 24% (3); % MPE: maximum % antagonism of 3 mg/kg Δ^9-THC (mice [5]; at 10 mg/kg i.v.): 51% (10); RT: maximum % antagonism of 3 mg/kg Δ^9-THC (in words) (mice [6]; [7]): None (3, 10)
7 | COc1ccc(COCc2nn(-c3ccc(Cl)cc3Cl)c(-c3ccc(Cl)cc3)c2C)cc1 | 31% (30) | None (30) | >30 | >30 | >30 | 0.194 | –
8 | CCCCCC(O)c1nn(-c2ccc(Cl)cc2Cl)c(-c2ccc(Cl)cc2)c1C (stereo not drawn) | 11% (30) | None (30) | >30 | >30 | >30 | 0.657 | –
9 | Cc1c(COCCN2CCCCC2)nn(-c2ccc(Cl)cc2Cl)c1-c1ccc(Cl)cc1 | – | None (10) | – | – | – | 2.45 | Max % inhibit of spontaneous locomotor activity, Compound Alone (mice [1]; at 10 mg/kg i.v.): 69% (10); SA: maximal effect produced by the analog (mice [1]; mice, i.v., at 10 mg/kg): 69% (10)^a
10 | Cc1c(COCC2CCCCC2)nn(-c2ccc(Cl)cc2Cl)c1-c1ccc(Cl)cc1 | – | – | – | – | – | 0.388 | –
11 | Cc1c(COCc2c3ccccc3cc3ccccc23)nn(-c2ccc(Cl)cc2Cl)c1-c1ccc(Cl)cc1 | – | – | >10 | >10 | >10 | 0.379 | Max stim of spontaneous locomotor activity, Compound Alone (mice [1]; at 30 mg/kg i.v.): 4% (30)
12 | Cc1c(COCC2CCCCO2)nn(-c2ccc(Cl)cc2Cl)c1-c1ccc(Cl)cc1 (stereo not drawn) | – | None (10) | >10 | – | – | 0.351 | Max % inhibit of spontaneous locomotor activity, Compound Alone (mice [1]; at 10 mg/kg i.v.): 43% (10)
